Sequences of proteins named here, by UniProt entry; tags and fusion partners are left off. A change or cut given only in a name is not applied to a line headed by its entry.
UniProt P10636: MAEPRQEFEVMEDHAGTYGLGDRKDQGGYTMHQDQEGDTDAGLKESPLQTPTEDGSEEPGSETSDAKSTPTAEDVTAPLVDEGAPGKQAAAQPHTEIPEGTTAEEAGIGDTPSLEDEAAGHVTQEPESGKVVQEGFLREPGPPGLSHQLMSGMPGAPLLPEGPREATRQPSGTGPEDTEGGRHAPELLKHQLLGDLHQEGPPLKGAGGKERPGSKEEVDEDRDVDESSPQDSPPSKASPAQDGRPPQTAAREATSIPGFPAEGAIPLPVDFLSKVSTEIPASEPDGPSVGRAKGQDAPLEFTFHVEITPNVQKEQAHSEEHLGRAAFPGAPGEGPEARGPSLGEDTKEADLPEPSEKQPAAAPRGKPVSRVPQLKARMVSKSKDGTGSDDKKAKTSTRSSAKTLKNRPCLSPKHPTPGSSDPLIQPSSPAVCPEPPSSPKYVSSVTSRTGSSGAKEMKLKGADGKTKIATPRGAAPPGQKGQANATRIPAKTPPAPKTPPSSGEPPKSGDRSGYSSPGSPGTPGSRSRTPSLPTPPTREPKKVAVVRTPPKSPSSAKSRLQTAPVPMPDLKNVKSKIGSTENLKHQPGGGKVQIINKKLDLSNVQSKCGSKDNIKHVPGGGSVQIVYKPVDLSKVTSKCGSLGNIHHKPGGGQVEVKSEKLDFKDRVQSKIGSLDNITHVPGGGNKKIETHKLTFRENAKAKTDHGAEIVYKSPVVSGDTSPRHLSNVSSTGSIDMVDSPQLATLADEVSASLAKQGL

In patent publication US11667628B2, “Compounds for imaging tau proteins that accumulate in brain” (National Institutes for Quantum and Radiological Science …, priority 2012, dated 2023):

Tests used:
[1] = target: tau accumulations in the PS19 mice (Homo sapiens, UniProt P10636, P618S); assay: Ex vivo fluorescence microscopy and multi-photon imaging after intravenous administration; details: 60 minutes; for 2-photon labeling of spinal cord block of PS19 mice, ex vivo sample: 1 mg/kg intravenous
[2] = target: tau inclusions in spinal cord of PS19 mice (Homo sapiens, UniProt P10636, P618S); assay: In vivo 2-photon laser scanning fluorescence microscopic examination
[3] = target: tau pathologies of PS19 mice (Homo sapiens, UniProt P10636, P618S); assay: In vivo PET imaging of mice; details: for PET visualization of tau pathologies of PS19 mice: 60 to 90 minutes after administration
[4] = target: tau accumulations in PS19 mice (Homo sapiens, UniProt P10636, P618S); assay: Non-invasive near infrared fluorescence imaging of tau accumulations in living mice
[5] = target: fibrous aggregate pathologies in the brain stems of PS19 mice (Homo sapiens, UniProt P10636, P618S); assay: In vitro autoradiography, mouse brain sections; details: for radiolabeling of fibrous aggregate pathologies, mouse brain stems: up to 1 nM radioligand
[6] = target: tau inclusions in brain stem and spinal cord of PS19 mice (Homo sapiens, UniProt P10636, P618S); assay: Ex vivo autoradiography of mice; details: for radiolabeling of tau inclusions in brain stem and spinal cord of PS19 mice: caudal vein, 45 minutes after injection

CNc1ccc(/C=C/C=C/c2nc3cc(O)c(O)cc3s2)cn1
2-photon labeling of spinal cord block of PS19 mice, ex vivo sample [1]: labelled

CNc1ccc(/C=C/C=C/c2nc3ccc(O)cc3s2)cc1
2-photon labeling of spinal cord block of PS19 mice, ex vivo sample [1]: labelled

CNc1ccc(/C=C/C=C/c2nc3ccc(O)cc3s2)cn1
blood brain barrier passage ([2]; 1 mg/kg intravenous): passes the blood brain barrier | time of spread of signals from blood vessels to spinal cord tissues ([2]; 1 mg/kg intravenous): ≤ 5 min | time to appearance of signals in blood vessels after injection ([2]; 1 mg/kg intravenous): ≤ 3 s | binding to tau inclusions in PS19 mice ([2]; 1 mg/kg intravenous, no such signals in WT mice): clear binding to tau inclusions | time to disappearance from WT mice ([2]; FIG. 5I, after injection): ≤ 300 s

2-((1E, 3E)-4-(4-(dimethylamino)phenyl)buta-1, 3-dienyl)-3-ethyl-6-[^11C] methoxybenzo[d]thiazole-3-ium
PET retention in brain stems, PS mice compared to WT mice ([3]; 30 to 90 minutes after injection): held in the brain stems of the PS mice

CC[n+]1c(/C=C/C=C/c2ccc(N(C)C)cc2)sc2ccccc21 [PBB5, 2-((1E,3E)-4-(4-(dimethylamino)phenyl)buta-1,3-dienyl)-3-ethylbenzo[d] thiazole-3-ium]
fluorescence intensity in brain stem and spinal cord ROIs, PS19 versus WT mice ([4]; 0.1 mg/kg intravenous, 30 minutes): exceed the intensity in the WT mice | signals in brain stems and spinal cords of PS19 mice ([4]; 0.1 mg/kg intravenous, 240 minutes later): signals were observed | fluorescence duration in BS and SC ROIs of tau Tg mice compared to WT ([4]; 120 minutes after intravenous injection, 11-month-old mice): extended durations of fluorescence | ratios of fluorescence intensity in BS and SC ROIs to FC ROI ([4]; WT n=7, PS19 n=7, p<0.001 genotype): significantly bigger in the WT mice than in the PS19 mice

[11CH3]Nc1ccc(/C=C/C=C/c2nc3ccc(O)cc3s2)cc1 [[^11C]PBB2, 2-((1E,3E)-4-(4-([^11C]methylamino)phenyl)buta-1,3-dienyl)benz[d]thiazole-6-ol]
radiolabeling of fibrous aggregate pathologies, mouse brain stems [5]: strongly radio-labeled | PET visualization of tau pathologies of PS19 mice [3]: successfully visualized in vivo | radiolabeling of tau inclusions in brain stem and spinal cord of PS19 mice [6]: radio-labeled

[11CH3]Nc1ccc(/C=C/C=C/c2nc3ccc(O)cc3s2)cn1 [[^11C]PBB3, 2-((1E,3E)-4-(6-([^11C]methylamino)pyridine-3-yl)buta-1,3-dienyl)benz[d]thiazole-6-ol]
binding in presence of non-radioactive ligand ([5]; non-radioactive PPB3 (10 μM), FIG. 6A, PS19 and AD sections): blocked | radiolabeling of fibrous aggregate pathologies, mouse brain stems [5]: strongly radio-labeled | PET visualization of tau pathologies of PS19 mice [3]: successfully visualized in vivo | time of maximum brain stem to striatum ratio ([3]; PS19 mice): approximately 70 minutes | blood brain barrier passage ([3]; after intravenous injection): passed the blood brain barrier quickly | signal in brain stems of 12-month-old PS19 mice ([3]; imaging period 90 minutes, significantly different from WT): maintained over the imaging period | half-life of removal of unbound and non-specifically bound compound from the brains ([3]; intravenous injection): approximately 10 minutes | increase of average BS-to-ST ratio, PS19 versus WT mice ([3]; over 45 to 90 minutes, 12-month-old mice): 40% | radiolabeling of tau inclusions in brain stem and spinal cord of PS19 mice [6]: radio-labeled | selectivity of radiolabeling of tau inclusions ([6]; compared with [^11C]PBB2): more selectively

(E,E)-1-fluoro-2,5-bis(3-hydroxycarbonyl-4-hydroxy)styrylbenzene
ex vivo labeling of tau accumulations in PS19 mice ([1]; caudal vein, large amount of administration necessary (10 mg/kg FSB)): found to bind to tau accumulations in the PS19 mice
